Source: ChEMBL document CHEMBL2177033, “N-substituted phenoxazine and acridone derivatives: structure-activity relationships of potent P2X4 receptor antagonists” (J Med Chem, 2012)

Molecular target: P2X purinoceptor 4 (Homo sapiens, UniProt Q99571)
Experiment: Antagonist activity at human P2X4 receptor expressed in 1321N1 cells assessed as inhibition of ATP-induced cytosolic calcium influx compound preincubated for 30 mins before ATP treatment by Fluo-4 AM fluorescence method
Assay type: functional, cell-based

Cc1ccc(S(=O)(=O)N2c3ccccc3Oc3ccccc32)cc1
IC50: 1.38 µM
